These results are taken from paper PMC3443740 (Journal of immunology (Baltimore, Md. : 1950), 2012).

Experiment [1] concerns phospho-Y701 STAT1. As to conditions: BMDMs, 500 Units/ml IFNβ 30 min.
Experiment [2] concerns phospho Tyr705 STAT3. The conditions noted are these: BMDMs, 1 h pre-incubation, 100 ng/ml IL-10 30 min.

As to `N#CC[C@H](C1CCCC1)n1cc(-c2ncnc3[nH]ccc23)cn1` [Ruxolitinib], the “concentration required to block IFNβ induced STAT1 phosphorylation compared with IL-10 induced STAT3 phosphorylation” value in experiment [1] is “A similar concentration”. Moreover, the “concentration required to completely inhibit IL-10 induced STAT3 phosphorylation” value in experiment [2] was determined as 0.5 µM.
